# From patent publication US20240262879
# Columns and labels:
# [1] = tested on: Control (peptide of Table 12)
substance,measurement,setting,value
rhMMP13,Specific Activity,Peptide 10,156 pmol/min/µg
same,Specific Activity,Peptide 5 (GPLGVRG),362 pmol/min/µg
same,Specific Activity,[1],10 pmol/min/µg
same,Specific Activity,Peptide 8,344 pmol/min/µg
